For this assay, the target named is Kappa-type opioid receptor (Homo sapiens) (UniProt P41145). Description: Displacement of [3H]Diprenorphine from human recombinant kappa opioid receptor expressed in HEK293 cells at 10 uM after 60 mins relative to control. Background: In a radioligand displacement assay an active substance lowers the binding of a labelled ligand.

Protein sequences, listed by entry. Tags and fused reporters are not part of them.
UniProt P41145, whole entry: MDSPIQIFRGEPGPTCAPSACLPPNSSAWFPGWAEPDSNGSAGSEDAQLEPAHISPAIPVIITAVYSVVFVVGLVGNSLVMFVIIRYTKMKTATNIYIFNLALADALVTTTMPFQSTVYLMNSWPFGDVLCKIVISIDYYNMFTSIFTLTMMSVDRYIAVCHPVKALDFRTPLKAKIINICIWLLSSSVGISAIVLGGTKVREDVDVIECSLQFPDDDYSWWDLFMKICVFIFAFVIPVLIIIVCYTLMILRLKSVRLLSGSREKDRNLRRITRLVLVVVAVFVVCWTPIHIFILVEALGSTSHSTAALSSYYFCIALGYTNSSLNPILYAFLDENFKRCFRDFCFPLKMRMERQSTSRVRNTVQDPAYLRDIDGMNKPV

The structures appear in SMILES notation.

The term inhibition denotes the percentage by which the read-out fell short of the control.

Turning to `CN(C(=O)Cc1ccccc1)[C@H]1C[C@]2(CCCO2)CC[C@@H]1N1CCCC1`, the inhibition is 11%.

The values are drawn from ChEMBL document CHEMBL2390918, “Cinnamides as selective small-molecule inhibitors of a cellular model of breast cancer stem cells” (Bioorg Med Chem Lett, 2013).
